According to paper PMC4009755, “High-Throughput Screen of Natural Product Libraries for Hsp90 Inhibitors” (Biology, 2014):

Biological target: Hsp90 chaperone machinery present in rabbit reticulocyte lysate
Assay: Hsp90-dependent refolding of thermally denatured luciferase in rabbit reticulocyte lysate (high-throughput screen and titration)
Assay type: biochemical
Experimental: Rabbit reticulocyte lysate, prepared by lysing one volume of packed reticulocytes in two volumes of deionized water, followed by centrifugation for twenty minutes at 15,000 × g, was purchased from Green Hectares (Oregon, WI, USA).
Recombinant luciferase from Promega was diluted to 0.5 mg/mL in buffer consisting of 25 mM Tricine–HCl (pH 7.8), 8 mM MgSO4, 0.1 mM EDTA, and 10 mg/mL acetylated BSA. Next, the solution was adjusted to include 10% glycerol and 1% Triton X-100. Finally, the luciferase solution was heated to ~41°. Once the activity of the luciferase reached ~1% of its initial value, the mixture was placed on ice, or flash frozen in liquid nitrogen and placed at −80° for storage.
To prepare the denatured luciferase for use in re-folding assays, 125 µL of the 0.5 mg/mL mixture was added into a 10 mL mixture containing 80 mM Tris HCl, pH 7.7, 8 mM Mg(OAc)2, 300 mM KCl, 12 mM ATP, and 20 mM creatine phosphate, and 0.8 mg/mL creatine phosphokinase.
The assay buffer, which contains the luciferase substrate luciferin, consisted of 75 mM Tricine-HCl, pH 7.8, 24 mM MgSO4, 300 µM EDTA, 2 mM DTT, 313 µM D-luciferin, 640 µM coenzyme A, 660 µM ATP, 150 mM KCl, 10% (v/v) Triton X-100, 20% (v/v) glycerol, and 3.5% DMSO.
The libraries were screened for compounds that inhibited the refolding of thermally denatured luciferase using a high-throughput assay carried out with a slight modification of the method previously described. Briefly, compounds were reconstituted in 100% DMSO. Stocks of compounds purchased from Microsource, TimTec, Biofocus and BioMol were reconstituted to a concentration of 1 mg/mL. The stocks were diluted 40-fold into nano-pure water with the compounds being used at a final concentration of 12.5 µg/mL for the assay. Analyticon compounds (0.2 µmol) were reconstituted to a concentration of 4 mM, and were used at a final concentration of 40 µM in the assay. Assays were performed in 96-well microplates. To each well was added 30 µL of the water/DMSO compound solution, 15 µL of the reticulocyte lysate preparation, and 15 µL of the luciferase reagent. The plates were agitated and then allowed to incubate at 25 °C for one to three hours. After the incubation, 60 µL of assay buffer containing luciferin was added to each well. The plates were then read in a Molecular Devices LMaxII^384 microplate reader, and luminescence was measured in relative light units, with an integration time of 10 s. Compounds that inhibited luciferase refolding by approximately fifty percent or greater were then titrated into a refolding reaction containing native luciferase, to eliminate false positive hits that were direct inhibitors of luciferase as previously described. Compounds were classified as a potential Hsp90 inhibitor if they inhibited luciferase refolding by 60% or greater and there was no inhibition of the activity of native luciferase at the compound’s IC50 (concentration of the compound that inhibits luciferase refolding by 50%).
The titrations were repeated twice. For a more accurate determination of the IC50s for the compounds studied in Section 3.2.1 of this manuscript, a two-fold […] series of the compounds were used in triplicate, with the experiment being repeated three times.

[1] = estimate, titration from 25 µg/mL in three-fold dilutions, repeated twice, rabbit reticulocyte lysate

IC50 [1]	Structure (SMILES)	IC50 (two-hour incubation, vs DMSO control, triplicate, repeated three times, read-out: IC50 luciferase refolding)
~60 µM	CC(C)/C=C1\NC(=O)C(C(C)C)n2c1nc1ccccc1c2=O (stereo not drawn) [Compound 53, (Z)-4-isopropyl-1-(2-methylpropylidene)-1,2-dihydro-6H-pyrazino[2,1-b]quinazoline-3,6(4H)-dione]	–
40 to 100 µM	O=C1c2ccccc2C(=O)c2c(O)c(O)cc(O)c21 [Compound 86, 1,2,4-trihydroxyanthracene-9,10-dione]	–
~10 µM	O=c1cc(-c2ccccc2O)oc2c(O)c(O)ccc12 [Compound 27, 7,8-dihydroxy-2-(2-hydroxyphenyl)chromen-4-one]	–
~30 µM	C=C1C(=O)O[C@@H]2/C=C(\C)C(OC(C)=O)C/C=C(\C)CC(OC(=O)/C(=C/COC(C)=O)COC(C)=O)C12 (stereo partly drawn) [Compound 7]	–
~50 µM	CC(C)=CCc1cc2c(c(CC=C(C)C)c1O)OCC1c3ccc(O)cc3OC21 (stereo not drawn) [Compound 112]	–
75 to 100 µM	CCCCCC(O)/C=C/[C@H]1C(=O)C=C[C@@H]1C/C=C\CCCC(=O)O (stereo partly drawn) [Compound 114, Prostaglandin J2]	–
> 60 µM	COc1cccc2c1C(=O)c1c(O)c3c(c(O)c1C2=O)C[C@@](O)([C@@H](C)O)C[C@@H]3O [Compound 88, Dihydodaunomycinone]	–
> 90 µM	COc1ccc(-c2coc3cc(O)cc(O)c3c2=O)cc1 [Compound 28, 5,7-dihydroxy-3-(4-methoxyphenyl)-chromen-4-one]	–
~130 µM	O[C@@H]1CCN2Cc3ccccc3N=C12 [Compound 51, Peganine]	–
~60 µM	CC(C)=CCc1cc(C2CCc3ccc(O)cc3O2)c(CC=C(C)C)c(O)c1O (stereo not drawn) [Compound 18]	–
~5 µM	O=C(OC[C@H]1O[C@@H](OC(=O)c2cc(O)c(O)c(OC(=O)c3cc(O)c(O)c(O)c3)c2)[C@H](OC(=O)c2cc(O)c(O)c(OC(=O)c3cc(O)c(O)c(O)c3)c2)[C@@H](OC(=O)c2cc(O)c(O)c(OC(=O)c3cc(O)c(O)c(O)c3)c2)[C@@H]1OC(=O)c1cc(O)c(O)c(OC(=O)c2cc(O)c(O)c(O)c2)c1)c1cc(O)c(O)c(OC(=O)c2cc(O)c(O)c(O)c2)c1 [Compound 22, Tannic acid]	–
> 75 µM	C[C@H]1c2ccoc2CC2[C@H]1CCC1[C@@](C)(CC(=O)O)CCC[C@]21C (stereo partly drawn) [Compound 95, 2-((4R,6aS,7R,11bR)-4,7,11b-trimethyl-1,2,3,4,4a,5,6,6a,7,11,11a,11b-dodecahydro-phenanthro[3,2-b]furan-4-yl) acetic acid]	–
~10 µM	CNC1CC(Oc2cc(C)cc(CO)c2C2=C(SCC(NC(C)=O)C(=O)O)C(=O)c3c(O)cccc3C2=O)OC(C)C1O (stereo not drawn) [Compound 82]	–
~2 µM	C=CC(C1=CC(=O)C=CC1=O)c1ccccc1 (stereo not drawn) [Compound 92, Dalbergione]	–
30 to 75 µM	CC(C)c1ccc2c(c1)CCC1[C@](C)(CN)CCC[C@]21C (single isomer, unassigned; (+)) [Compound 96, (+)-Dehydroabietylamine]	–
~20 µM	COc1cc(C/C=C/c2ccccc2)c(OC)cc1O [Compound 46, Violastyrene]	–
~45 µM	COc1cc2oc(-c3ccccc3)cc(=O)c2cc1O [Compound 34, 6-Hydroxy-7-methoxyflavone]	–
> 30 µM	COc1cc2c(cc1OC)C(Cc1ccc(OC)c(OC)c1Oc1cc3c(cc1OC)-c1c(OC)c(OC)cc4c1[C@H](C3)N(C)CC4)N(C)CC2 (stereo partly drawn) [Compound 69]	–

IC50 [1]	Structure (SMILES)	IC50 (two-hour incubation, vs DMSO control, triplicate, repeated three times, read-out: IC50 luciferase refolding)
~100 µM	COc1cccc2oc(-c3ccccc3)cc(=O)c12 [Compound 24, 5-Methoxyflavone]	–
~3 µM	C/C=C/C=C/c1cc2cc3c(c(O)c2c(=O)[nH]1)[C@@]1(CC3)C(=O)c2c(O)c3c(c(O)c2C1=O)C(=O)C(OC)=CC3=O [Compound 58, Fredericamycin]	–
~5 µM	C/C=C/C(=O)c1c(OC)cc2cc(OC)cc(OC)c2c1OC [Compound 103, (E)-1-(1,3,6,8-tetramethoxy-naphthalen-2-yl)but-2-en-1-one]	–
~50 µM	CC(=O)OC1C=C(CO)C(=O)C(OC(=O)CC(C)C)C1C(C)C (stereo not drawn) [Compound 102]	–
~20 µM	CC1(C)CCC2=C(O1)c1ccccc1C(=O)C2=O [Compound 79, β-Lapachone]	–
~40 µM	CO[C@H]1[C@@H](OC)C[C@H](C)[C@@H](OC)C2=CC(=O)C=C(NC(=O)/C(C)=C/C=C\[C@H](OC)[C@@H](OC(N)=O)/C(C)=C/[C@@H]1C)C2=O [Compound 91, Herbimycin]	–
~60 µM	C=C1C(=O)O[C@H]2C1[C@H](OC(=O)/C(=C/CO)COC(=O)/C(C)=C\CO)CC(=C)[C@@H]1CC(=O)[C@@H](C)[C@@H]12 (stereo partly drawn) [Compound 1]	–
~25 µM	O=c1c(O)cc([C@H]2Oc3cc(O)cc(O)c3C[C@H]2O)cc2c([C@H]3Oc4cc(O)cc(O)c4C[C@H]3O)cc(O)c(O)c12 [Compound 15, Theaflavin]	–
~120 µM	O=C(/C=C/c1ccc(O)cc1)c1ccccc1O [Compound 41, 2',4-Dihydroxychalone]	–
~70 µM	O=C(OC1O[C@@H]2COC(=O)c3cc(O)c(O)c(O)c3-c3c(cc(O)c(O)c3O)C(=O)O[C@H]2[C@H](OC(=O)c2cc(O)c(O)c(O)c2)[C@H]1OC(=O)c1cc(O)c(O)c(O)c1)c1cc(O)c(O)c(O)c1 (stereo partly drawn) [Compound 14, Tellimagrandin II]	–
~70 µM	COc1c(C)c(O)c(C)c(O)c1C(=O)/C=C/c1ccccc1 [Compound 44, Dimethyl cardamonin]	–
~40 µM	COc1ccc2cc3[n+](cc2c1OC)CCc1cc2c(cc1-3)OCO2 [Compound 71, Berberine]	–
~50 µM	CC(C)=CCc1c(O)ccc(C(=O)/C=C/c2ccc(O)cc2)c1O [Compound 43, Corylifolinin]	–
~0.2 µM	CC(C)=CCc1c(O)cc2occ(-c3ccc4c(c3)OCO4)c(=O)c2c1O [Compound 38, Derrubone]	–
~50 µM	CC(C)=CCCC1(C)C=Cc2c(O)cc(O)c(C(=O)c3ccccc3)c2O1 (stereo not drawn) [Compound 17]	–
~25 µM	COc1cc(O[C@@H]2O[C@H](CO)[C@@H](O)[C@H](O)[C@H]2O)c2c(O)c(C(C)=O)c(C)cc2c1 [Compound 20, Torachrysone 8-O-Glucoside]	–
~60 µM	Cc1c(O)c2c(c(C(=O)/C=C/c3ccccc3)c1O)OC(C)(C)C=C2 [Compound 42, [6-methyl-5,7-dihydroxy-2,2-dimethylchromen-8-yl]-3-phenylprop-2-en-1-one]	–
~40 µM	C=C1C(=O)O[C@@H]2[C@H]3C(C)=CC[C@H]3C(=C)C[C@@H](OC(=O)/C(=C/CO)CO)[C@@H]12 [Compound 3]	–

Structure (SMILES)	IC50 [1]	IC50 (two-hour incubation, vs DMSO control, triplicate, repeated three times, read-out: IC50 luciferase refolding)
CN1CC[C@@]2(C)c3cc(O)ccc3N(C)[C@@H]12 [Compound 56, (−)-Eseroline]	50 to 90 µM	–
COC(=O)/C(C)=C\CC12OC(C)(C)C3CC(C=C4C(=O)c5c(OC)c6c(c(CC=C(C)C)c5OC431)OC(C)(CCC=C(C)C)C=C6)C2=O (stereo not drawn) [Compound 37, Dimethyl Gambogate]	~2 µM	–
Cc1cc(O)c2c(=O)c3c(O)cc(O)c4c5c(O)cc(O)c6c(=O)c7c(O)cc(C)c8c1c2c(c34)c(c78)c65 [Compound 115, Hypericin]	50 to 75 µM	–
CC(C)=CCC[C@]1(C)C=Cc2c(O)c3c(c(CC=C(C)C)c2O1)O[C@]12C(=C[C@@H]4C[C@H]1C(C)(C)O[C@@]2(C/C=C(/C)C(=O)O)C4=O)C3=O [Compound 35, Gambogic acid]	~2 µM	–
CC(=O)O[C@@H]1C[C@@]2(C)[C@H](c3ccoc3)C[C@H]3O[C@]32[C@]2(C)C(=O)C(O)=C3C(C)(C)C(=O)C=C[C@]3(C)[C@@H]12 [Compound 50, Anthothecol]	~6 µM	12 ± 2 µM

Read-outs that look alike come from different tables or passages of the source.
